Tested on: ACE2me2 di-methylated ACE2 peptide QAKTFLD{Lys(Me2)}FNHEAED

## recombinant LSD1 protein
  in vitro LSD1 activity assay (demethylation reaction): LSD1 efficiently de-methylated the ACE2 peptide at lysine 31

Reference: patent US20240352072
